Measured values from ChEMBL document CHEMBL4622974, “Leveraging an Open Science Drug Discovery Model to Develop CNS-Penetrant ALK2 Inhibitors for the Treatment of Diffuse Intrinsic Pontine Glioma” (J Med Chem, 2020).
The source made the active and inactive calls. No cut-off for these calls is given here.

Protein sequences, listed by entry. Tags and fused reporters are not part of them. Lines headed by an entry give the natural chain unless they say otherwise; changes in a name come on top.
UniProt Q9Y2K2: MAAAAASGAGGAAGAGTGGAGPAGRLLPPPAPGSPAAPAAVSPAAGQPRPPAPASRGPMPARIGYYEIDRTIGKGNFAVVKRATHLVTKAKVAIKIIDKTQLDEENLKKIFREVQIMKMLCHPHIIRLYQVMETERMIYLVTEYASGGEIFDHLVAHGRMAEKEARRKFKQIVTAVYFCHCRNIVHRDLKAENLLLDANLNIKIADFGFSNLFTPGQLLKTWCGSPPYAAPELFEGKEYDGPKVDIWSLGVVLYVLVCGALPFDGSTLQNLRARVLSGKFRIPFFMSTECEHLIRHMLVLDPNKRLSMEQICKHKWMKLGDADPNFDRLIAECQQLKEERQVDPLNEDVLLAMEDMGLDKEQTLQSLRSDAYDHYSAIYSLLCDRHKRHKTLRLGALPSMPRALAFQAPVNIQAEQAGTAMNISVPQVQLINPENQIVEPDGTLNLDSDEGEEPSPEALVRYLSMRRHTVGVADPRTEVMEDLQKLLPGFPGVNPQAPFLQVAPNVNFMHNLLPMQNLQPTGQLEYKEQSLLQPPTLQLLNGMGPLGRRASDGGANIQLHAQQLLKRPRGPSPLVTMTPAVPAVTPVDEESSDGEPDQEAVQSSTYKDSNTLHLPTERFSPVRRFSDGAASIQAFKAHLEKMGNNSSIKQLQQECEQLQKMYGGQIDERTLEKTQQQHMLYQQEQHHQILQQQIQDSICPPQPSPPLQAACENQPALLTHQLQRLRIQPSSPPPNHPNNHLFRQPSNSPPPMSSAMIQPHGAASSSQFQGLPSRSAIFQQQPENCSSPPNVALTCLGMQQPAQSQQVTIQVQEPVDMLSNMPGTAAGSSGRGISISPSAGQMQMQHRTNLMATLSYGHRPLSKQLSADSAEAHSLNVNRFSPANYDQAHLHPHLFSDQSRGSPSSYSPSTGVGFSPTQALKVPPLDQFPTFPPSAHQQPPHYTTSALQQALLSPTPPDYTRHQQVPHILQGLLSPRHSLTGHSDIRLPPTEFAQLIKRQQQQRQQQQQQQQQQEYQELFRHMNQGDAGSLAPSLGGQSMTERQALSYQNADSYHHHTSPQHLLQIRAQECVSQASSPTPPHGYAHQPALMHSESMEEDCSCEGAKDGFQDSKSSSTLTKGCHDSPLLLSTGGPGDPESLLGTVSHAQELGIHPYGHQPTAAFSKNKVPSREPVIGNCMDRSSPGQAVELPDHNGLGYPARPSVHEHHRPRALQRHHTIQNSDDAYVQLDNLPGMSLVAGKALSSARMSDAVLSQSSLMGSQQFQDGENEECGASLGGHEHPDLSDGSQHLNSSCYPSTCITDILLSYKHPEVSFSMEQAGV
UniProt Q9Y4K4: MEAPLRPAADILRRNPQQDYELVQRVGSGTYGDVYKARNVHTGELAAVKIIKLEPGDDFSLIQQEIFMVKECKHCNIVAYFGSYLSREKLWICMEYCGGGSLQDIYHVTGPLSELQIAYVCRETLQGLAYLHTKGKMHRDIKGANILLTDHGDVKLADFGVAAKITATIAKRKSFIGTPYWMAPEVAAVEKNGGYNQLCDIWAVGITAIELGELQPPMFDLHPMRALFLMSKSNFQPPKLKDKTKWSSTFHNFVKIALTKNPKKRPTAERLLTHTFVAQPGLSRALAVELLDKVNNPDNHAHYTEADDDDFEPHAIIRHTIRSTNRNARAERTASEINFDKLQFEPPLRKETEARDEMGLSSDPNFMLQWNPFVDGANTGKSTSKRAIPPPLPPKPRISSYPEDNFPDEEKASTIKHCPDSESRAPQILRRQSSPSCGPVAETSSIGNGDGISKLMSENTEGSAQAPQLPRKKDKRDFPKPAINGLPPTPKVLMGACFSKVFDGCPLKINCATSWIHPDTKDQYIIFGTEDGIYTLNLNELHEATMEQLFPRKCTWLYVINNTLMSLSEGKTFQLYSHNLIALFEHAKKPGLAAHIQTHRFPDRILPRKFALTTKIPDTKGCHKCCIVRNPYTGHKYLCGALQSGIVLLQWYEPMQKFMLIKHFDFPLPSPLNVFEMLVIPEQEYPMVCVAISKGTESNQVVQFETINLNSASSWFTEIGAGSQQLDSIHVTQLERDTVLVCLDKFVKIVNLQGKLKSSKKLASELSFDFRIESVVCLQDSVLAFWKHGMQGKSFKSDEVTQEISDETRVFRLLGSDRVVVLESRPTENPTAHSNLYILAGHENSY
UniProt O95819: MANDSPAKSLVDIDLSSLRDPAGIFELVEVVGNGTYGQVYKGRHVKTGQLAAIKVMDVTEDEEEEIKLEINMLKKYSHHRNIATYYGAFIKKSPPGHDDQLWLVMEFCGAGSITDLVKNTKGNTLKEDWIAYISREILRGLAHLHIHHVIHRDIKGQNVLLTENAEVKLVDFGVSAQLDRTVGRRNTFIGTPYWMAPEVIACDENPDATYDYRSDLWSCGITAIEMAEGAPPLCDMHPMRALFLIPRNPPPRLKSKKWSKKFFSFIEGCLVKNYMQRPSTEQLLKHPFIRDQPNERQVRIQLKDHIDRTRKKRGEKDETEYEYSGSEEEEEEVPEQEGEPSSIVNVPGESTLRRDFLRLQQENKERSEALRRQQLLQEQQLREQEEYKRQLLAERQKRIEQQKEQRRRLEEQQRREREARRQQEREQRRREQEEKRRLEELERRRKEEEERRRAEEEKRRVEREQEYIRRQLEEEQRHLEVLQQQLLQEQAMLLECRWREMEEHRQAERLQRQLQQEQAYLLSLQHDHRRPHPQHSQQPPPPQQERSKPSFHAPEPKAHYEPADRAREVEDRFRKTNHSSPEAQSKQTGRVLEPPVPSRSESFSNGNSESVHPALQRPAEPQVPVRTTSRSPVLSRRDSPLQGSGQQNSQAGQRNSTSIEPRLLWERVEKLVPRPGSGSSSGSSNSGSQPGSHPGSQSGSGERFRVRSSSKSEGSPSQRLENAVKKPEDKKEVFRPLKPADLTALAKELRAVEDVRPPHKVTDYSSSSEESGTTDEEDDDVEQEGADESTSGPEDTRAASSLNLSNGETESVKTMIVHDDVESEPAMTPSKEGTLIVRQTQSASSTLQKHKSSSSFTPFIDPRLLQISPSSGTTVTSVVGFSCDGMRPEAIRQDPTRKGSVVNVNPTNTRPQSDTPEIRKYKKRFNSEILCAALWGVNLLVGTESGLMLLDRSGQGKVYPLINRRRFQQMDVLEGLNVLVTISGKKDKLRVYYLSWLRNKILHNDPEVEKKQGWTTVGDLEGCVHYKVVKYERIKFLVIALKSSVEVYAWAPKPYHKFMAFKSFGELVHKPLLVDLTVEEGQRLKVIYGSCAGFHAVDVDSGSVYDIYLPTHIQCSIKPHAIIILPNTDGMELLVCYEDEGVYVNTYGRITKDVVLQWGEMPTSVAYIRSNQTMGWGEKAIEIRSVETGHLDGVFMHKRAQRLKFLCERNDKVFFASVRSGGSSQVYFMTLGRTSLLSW
UniProt P07948: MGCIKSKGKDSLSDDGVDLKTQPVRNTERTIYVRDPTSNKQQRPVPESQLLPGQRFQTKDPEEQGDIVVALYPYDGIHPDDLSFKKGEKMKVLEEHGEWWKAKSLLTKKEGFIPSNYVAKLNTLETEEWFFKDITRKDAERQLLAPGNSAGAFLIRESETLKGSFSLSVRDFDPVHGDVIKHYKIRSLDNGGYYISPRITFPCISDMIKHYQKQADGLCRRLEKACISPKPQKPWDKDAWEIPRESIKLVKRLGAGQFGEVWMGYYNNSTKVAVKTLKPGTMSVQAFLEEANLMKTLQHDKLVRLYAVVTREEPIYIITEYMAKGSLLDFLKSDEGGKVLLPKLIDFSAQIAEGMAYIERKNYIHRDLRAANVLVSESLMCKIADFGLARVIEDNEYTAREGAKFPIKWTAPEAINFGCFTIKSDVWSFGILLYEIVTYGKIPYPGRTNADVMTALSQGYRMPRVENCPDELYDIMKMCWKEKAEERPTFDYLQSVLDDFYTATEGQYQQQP
UniProt Q9H1R3: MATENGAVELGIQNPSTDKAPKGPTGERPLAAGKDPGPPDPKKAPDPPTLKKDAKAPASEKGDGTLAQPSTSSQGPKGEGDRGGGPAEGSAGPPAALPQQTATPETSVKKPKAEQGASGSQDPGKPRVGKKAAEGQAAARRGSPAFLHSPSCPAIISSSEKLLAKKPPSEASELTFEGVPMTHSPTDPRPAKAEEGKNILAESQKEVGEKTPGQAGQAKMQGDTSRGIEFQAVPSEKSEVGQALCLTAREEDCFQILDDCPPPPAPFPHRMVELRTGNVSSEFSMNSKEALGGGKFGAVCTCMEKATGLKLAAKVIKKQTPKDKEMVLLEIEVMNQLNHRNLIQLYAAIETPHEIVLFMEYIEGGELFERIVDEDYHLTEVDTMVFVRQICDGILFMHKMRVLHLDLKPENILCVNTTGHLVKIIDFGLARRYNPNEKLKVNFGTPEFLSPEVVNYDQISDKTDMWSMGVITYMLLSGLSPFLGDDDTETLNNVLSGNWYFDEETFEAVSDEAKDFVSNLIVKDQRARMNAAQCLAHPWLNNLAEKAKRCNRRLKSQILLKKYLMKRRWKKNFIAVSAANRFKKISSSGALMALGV
UniProt P06239: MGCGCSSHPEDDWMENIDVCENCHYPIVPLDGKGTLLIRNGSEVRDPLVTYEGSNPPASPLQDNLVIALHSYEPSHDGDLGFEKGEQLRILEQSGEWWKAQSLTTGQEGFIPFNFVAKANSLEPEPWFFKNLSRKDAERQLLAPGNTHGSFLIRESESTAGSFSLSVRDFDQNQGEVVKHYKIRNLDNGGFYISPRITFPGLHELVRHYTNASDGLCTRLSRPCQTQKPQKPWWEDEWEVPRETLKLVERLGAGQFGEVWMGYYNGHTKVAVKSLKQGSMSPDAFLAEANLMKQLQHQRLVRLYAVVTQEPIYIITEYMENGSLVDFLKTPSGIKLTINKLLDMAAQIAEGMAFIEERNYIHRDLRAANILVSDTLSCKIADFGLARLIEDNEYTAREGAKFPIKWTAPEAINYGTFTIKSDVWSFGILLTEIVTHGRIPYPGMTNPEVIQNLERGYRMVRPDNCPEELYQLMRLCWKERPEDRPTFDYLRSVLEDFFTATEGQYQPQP

Tests used:
Settings in all cases: 1 uM
[1] = molecular target: Serine/threonine-protein kinase SIK3 (Homo sapiens) (UniProt Q9Y2K2)
[2] = molecular target: T1, Serine/threonine-protein kinase NLK (Homo sapiens) (UniProt Q9UBE8)
T1 sequence (whole entry): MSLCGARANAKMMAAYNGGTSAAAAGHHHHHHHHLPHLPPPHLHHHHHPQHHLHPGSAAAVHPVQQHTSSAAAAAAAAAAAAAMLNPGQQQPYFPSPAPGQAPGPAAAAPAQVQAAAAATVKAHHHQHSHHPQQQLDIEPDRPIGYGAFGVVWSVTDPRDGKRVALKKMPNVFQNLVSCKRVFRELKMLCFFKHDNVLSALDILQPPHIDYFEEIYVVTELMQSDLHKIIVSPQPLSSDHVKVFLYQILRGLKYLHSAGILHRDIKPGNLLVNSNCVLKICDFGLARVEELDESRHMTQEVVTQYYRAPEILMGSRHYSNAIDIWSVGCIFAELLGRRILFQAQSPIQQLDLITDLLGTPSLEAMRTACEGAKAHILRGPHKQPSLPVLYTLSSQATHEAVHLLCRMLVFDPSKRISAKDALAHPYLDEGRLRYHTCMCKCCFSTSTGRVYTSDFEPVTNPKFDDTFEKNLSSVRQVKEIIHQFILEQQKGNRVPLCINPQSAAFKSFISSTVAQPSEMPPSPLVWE

[3] = molecular target: Mitogen-activated protein kinase kinase kinase kinase 5 (Homo sapiens) (UniProt Q9Y4K4)
[4] = molecular target: Mitogen-activated protein kinase kinase kinase kinase 4 (Homo sapiens) (UniProt O95819)
[5] = molecular target: Tyrosine-protein kinase Lyn (Homo sapiens) (UniProt P07948)
[6] = molecular target: Myosin light chain kinase 2, skeletal/cardiac muscle (Homo sapiens) (UniProt Q9H1R3)
[7] = molecular target: Tyrosine-protein kinase Lck (Homo sapiens) (UniProt P06239)

inhibition [1]: 51 to 61%
inhibition [2]: inactive
inhibition [3]: 51 to 61%
inhibition [4]: 51 to 61%
inhibition [5]: 51 to 61%
inhibition [6]: 51 to 61%
inhibition [7]: 51 to 61%
Structure (SMILES): COc1cc(-c2cncc(-c3ccc(N4CCNCC4)cc3)c2C)cc(OC)c1F
